Assay results taken from BindingDB's records for 31609608.
Only a part of the results on these compounds is given; other tests are left out.

Sequences of proteins named here, by UniProt entry; tags and fusion partners are left off.
UniProt P34972, whole entry: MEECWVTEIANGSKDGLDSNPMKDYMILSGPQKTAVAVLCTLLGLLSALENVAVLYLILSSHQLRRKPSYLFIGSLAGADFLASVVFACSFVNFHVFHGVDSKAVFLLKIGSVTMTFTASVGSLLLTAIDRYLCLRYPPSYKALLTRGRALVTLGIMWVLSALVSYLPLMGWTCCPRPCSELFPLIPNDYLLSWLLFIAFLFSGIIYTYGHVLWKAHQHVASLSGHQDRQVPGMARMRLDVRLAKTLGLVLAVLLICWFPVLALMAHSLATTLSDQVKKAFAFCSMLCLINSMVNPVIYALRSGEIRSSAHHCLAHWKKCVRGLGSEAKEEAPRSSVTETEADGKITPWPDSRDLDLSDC

Molecular target: Cannabinoid receptor 2 (Homo sapiens, UniProt P34972)

## CCOc1ccc(Cc2nc3cc(C(=O)N(CC)CC)ccc3n2CCNc2c3c(nc4ccccc24)CCCC3)cc1
  Ki: 39 nM
